The target of the assay is Dual specificity mitogen-activated protein kinase kinase 1 (Homo sapiens, UniProt Q02750).

Amino acid sequences for entries named in this document (tags omitted).
UniProt Q02750, whole entry, looked up: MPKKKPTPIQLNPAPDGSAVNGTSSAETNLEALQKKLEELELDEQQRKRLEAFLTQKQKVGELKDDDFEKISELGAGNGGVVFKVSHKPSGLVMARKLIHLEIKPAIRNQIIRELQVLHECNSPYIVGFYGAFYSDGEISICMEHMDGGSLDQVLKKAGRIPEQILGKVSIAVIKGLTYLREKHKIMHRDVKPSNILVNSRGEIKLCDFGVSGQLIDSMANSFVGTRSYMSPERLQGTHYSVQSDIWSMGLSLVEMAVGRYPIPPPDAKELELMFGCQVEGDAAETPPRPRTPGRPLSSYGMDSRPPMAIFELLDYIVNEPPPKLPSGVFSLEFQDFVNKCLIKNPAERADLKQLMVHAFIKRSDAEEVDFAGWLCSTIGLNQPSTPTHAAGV

As usually defined, the IC50 is the concentration that gives 50% inhibition. A higher IC50 goes with weaker potency in that assay. Molecule `N#C/C(=C(/N)Sc1ccccc1N)c1cccc(C(O)c2ccc(-c3nn[nH]n3)cc2)c1` (stereo unspecified) had an IC50 of 35 nM.

The values above are taken from ChEMBL document CHEMBL1147629, “Beyond U0126. Dianion chemistry leading to the rapid synthesis of a series of potent MEK inhibitors” (Bioorg Med Chem Lett, 2004).
